Here are results for two compounds from PubChem BioAssay AID652257 (The Scripps Research Institute Molecular Screening Center, 2013).

Amino acid sequences for entries named in this document (tags omitted).
UniProt Q99873, whole entry: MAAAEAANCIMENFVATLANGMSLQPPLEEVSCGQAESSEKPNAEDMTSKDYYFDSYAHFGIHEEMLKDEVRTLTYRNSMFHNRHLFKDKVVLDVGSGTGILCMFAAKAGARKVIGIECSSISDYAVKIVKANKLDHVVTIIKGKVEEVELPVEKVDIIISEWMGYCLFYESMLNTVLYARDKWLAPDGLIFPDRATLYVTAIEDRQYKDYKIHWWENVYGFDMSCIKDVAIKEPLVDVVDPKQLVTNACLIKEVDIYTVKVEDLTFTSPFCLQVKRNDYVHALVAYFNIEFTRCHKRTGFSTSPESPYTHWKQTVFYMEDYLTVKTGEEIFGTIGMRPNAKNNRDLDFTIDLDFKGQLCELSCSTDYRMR

Only a part is listed here, and it is no random draw. Activity calls are given as the source filed them.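 The calls were made as follows: active = inhibition above about 21% made by adding two undisclosed values (limit read from the data); inactive = the rest.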

The experiment concerns the target Protein arginine N-methyltransferase 1 (Homo sapiens) (UniProt Q99873). Description: human PRMT1 activity-probe blockers – biochemical, fluorescence polarization, primary screen (AID 652257). To be noted: recombinant PRMT1, activity-based probe fluorescence polarization; at 2.79 µM; active compounds read high. For orientation: In fluorescence polarisation assays a small probe gives low polarisation when free and higher when bound to something large.
For the compound `CCC(=O)N(c1ccccc1)C1(COC)CCN(CCn2nnn(CC)c2=O)CC1`, the inhibition is inactive: 2.95%.
As for `CCC(=O)N(c1ccccc1)C1(COC)CCN(CCc2cccs2)CC1`, the inhibition is inactive: -1.37%.

The term inhibition denotes the drop in the measured response relative to a control, in per cent.
